# System: primary porcine olfactory epithelial monolayers
# Details: ALI 20-21 days, apical to basolateral, 0.5 mg/mL in transport medium (MEM, 0.05% BSA), 37 °C, fluorescence read-out, mean (N = 3-4, n = 3)
substance,measurement,value
FITC-dextran,Fraction of applied compound permeated the barrier upon 24 h of incubation,3.7%

# Reference: publication PMC13538185, “The PSD-95 inhibitor NA-1 is delivered to the brain upon nasal administration with uptake into the olfactory bulb improved by co-administration with the cell-penetrating peptides lowPro and Tat” (Drug Delivery and Translational Research, 2025)
